# Antibody variant affinities, Ab-14 light chain, assay B

Target: peptide PDVDLGDISGINAS, taken from heptad repeat 2 (HR2) of SARS-CoV-2 spike.

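The parent was found by panning a naive human phage display library on the peptide. These sequences belong to a second round, designed from the earlier measurements on random variants of the parent. Their group label is 14L_En_Gibbs (En: ensemble of fine-tuned language models; Gibbs: Gibbs sampling). The scFvs were displayed on barcoded MATa yeast, the peptide on MATalpha yeast. Pairs that bind mate more often; barcode pairs of the diploids are counted by sequencing. A regression on co-assayed BCL2-family reference pairs converts the normalised counts of each replicate to an apparent Kd. Mating was done six times.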

Each scFv is VH, three GGGGS repeats, VL, as in the parent Ab-14, and differs from it in the CDRs of the light chain only.
VH: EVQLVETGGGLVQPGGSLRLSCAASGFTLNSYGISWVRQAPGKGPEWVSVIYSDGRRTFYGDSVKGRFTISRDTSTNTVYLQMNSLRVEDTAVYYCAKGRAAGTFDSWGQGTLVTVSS
VL: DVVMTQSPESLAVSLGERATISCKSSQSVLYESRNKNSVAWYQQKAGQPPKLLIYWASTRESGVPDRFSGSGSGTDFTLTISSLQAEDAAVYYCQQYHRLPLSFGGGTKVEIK

Each variant is given by its three light chain CDRs, as the data file delimits them; those of the parent are KSSQSVLYESRNKNSVA, WASTRES, QQYHRLPLS.
Values are log10 of the apparent Kd in nM; lower means stronger binding.
"nd" marks a missing value. The strain was present, yet no cells mated with the target were sequenced in that replicate, which points to weak or no binding.

CDR-L1 | CDR-L2 | CDR-L3 | log10 Kd (nM) by replicate | signal with controls
NLSDGEMYENATRSHIA | DTSMRDF | QQYNRLPLD | 0.96 / 2.08 / 1.39 / 1.33 / 1.55 / 1.26 | 3 of 18 (2.35)
KMTKAQYGAGSHQQNIA | ESNKISE | QSYYRLPLS | nd / nd / 2.21 / nd / 2.76 / 2.71 | 0 of 18
KLSLSMSFSLRGTRAIA | AGSTRAH | QQYHRLPLT | nd / 2.15 / 2.11 / 1.92 / 3.29 / 1.83 | 1 of 18 (2.12)
RLSTEHTGYGKMMNNIA | QGSTKQF | QQYDRLPLH | 0.57 / 0.89 / 0.65 / 0.53 / 0.50 / 0.82 | 0 of 18
QLQLQPQFGANAQHSIA | DVSEKDM | QQYARLPLH | 0.41 / 0.40 / 0.76 / 0.60 / 0.39 / 0.76 | 2 of 18 (2.50)
HLQEQSFVGQKDKWSVA | NTECKYN | QQYAQLPLM | 1.20 / 1.14 / 1.01 / 1.17 / 1.14 / 0.42 | 1 of 18 (2.14)
ATDHQEESGQEWEANVA | QDEQRAE | QQYHHLPLM | nd / nd / nd / nd / nd / nd | 0 of 18
KLNDAYQGDIVNNQNIA | SADMLNH | QQYAKLPLS | 1.07 / 0.77 / 0.61 / 0.70 / 0.73 / 0.81 | 0 of 18
RLQIHDNGYIGMRNNVA | DGGMVRM | QQYARLPLM | 0.24 / 0.26 / 0.18 / 0.20 / 0.03 / 0.25 | 1 of 18 (2.93)
KLKYQADQYGMQWNNVA | HADIRAP | QQYNKLPLN | 0.53 / 0.51 / 0.27 / 0.34 / 0.35 / 0.51 | 3 of 18 (3.15)
TLMNLMGGQDEMKNSIA | NHEIGVR | QQYAHLPLV | nd / nd / 1.49 / 2.45 / 1.82 / 1.82 | 2 of 18 (1.88)
SLRHMILDWDNKMGNIA | DVHMREQ | QQYFRLPIV | -0.02 / 0.54 / 0.01 / 0.52 / 0.08 / -0.12 | 0 of 18
HVMHEQLDYKNRENNIA | HESMRLH | QQYSQLPIT | 1.36 / 1.27 / 1.60 / 1.77 / 1.40 / 1.69 | 0 of 18
SLAGTLHFNQSGGSNVA | EVQMREQ | QQYFRLPLG | 1.86 / 1.33 / 1.76 / 1.57 / 1.42 / 2.08 | 0 of 18
ILNLTPMEHQIHMDAVA | QEAIRNA | QQYARLPLS | 2.38 / 0.80 / 0.71 / 1.12 / 0.99 / 0.82 | 0 of 18
HVESAMVESNAHKKNVA | NGQGRVE | QQYGRLPLQ | 1.29 / 1.06 / 0.55 / 0.84 / 1.63 / 1.25 | 0 of 18
RVQMGDQPGKTARNNIA | DGEEGYR | QQYARLPLS | 0.29 / 0.36 / 0.25 / 0.30 / 0.36 / 0.74 | 0 of 18
MISMMHASQYNEESSIA | NAEALNS | QQYHELPLS | 1.15 / 0.93 / 0.99 / 2.78 / 1.36 / 3.57 | 1 of 18 (1.40)
RIQDHHAEGEMRHSSIA | EESYRMD | QHYSRLPLA | 0.75 / 0.28 / 0.50 / 0.52 / 0.49 / 0.76 | 0 of 18
QLNVNRLMNYTMNNAIA | GKTLRVD | QQYAQLPLS | 0.51 / 0.90 / -0.07 / 0.54 / 0.53 / 0.44 | 2 of 18 (2.84)
KFNISKEGVTSEGESIA | GSQTIDE | QQYDRLPLA | 1.89 / 2.16 / 2.50 / 2.11 / 2.69 / nd | 1 of 18 (3.62)
HVSYQLRPGREIQNPIA | EGSHRAA | QQYDRLPLG | 0.89 / 0.75 / 0.43 / 0.62 / 0.54 / 0.74 | 2 of 18 (2.46)
SISENYAGNTDNGKSIA | AEILQME | QQYHRLPLA | nd / 3.14 / 1.79 / 2.30 / 2.13 / 1.30 | 1 of 18 (1.94)
KVVKAKSEGDRHAANVA | NANKASD | QQYYRLPLA | 0.14 / 0.08 / -0.02 / 0.08 / 0.01 / 0.15 | 0 of 18
MLSLNLHDMDANINNVA | EMNKLTA | QDYHRLPLH | 0.43 / 0.27 / 0.25 / 0.18 / 0.19 / 0.86 | 1 of 18 (3.20)
NIVGRVEDKQTENANIA | DAHCRAG | QQYSRLPLS | 0.12 / 0.16 / 0.19 / 0.07 / 0.18 / 0.60 | 2 of 18 (1.86)
QLKTEVIDNQQLRNSIA | ENELRAM | QQYLSLPLS | 1.92 / 1.16 / 1.08 / 1.17 / 0.98 / 1.04 | 0 of 18
GVDHTMESGKQAPNSIA | NAEQKTI | QQYQRLPLS | 0.53 / 0.40 / 0.52 / 0.39 / 0.57 / 0.69 | 1 of 18 (2.02)
RITILSDYYNENRNAIA | QTSLKAH | QQYQMLPLT | 0.85 / 0.67 / 0.30 / 0.39 / 0.56 / 0.40 | 0 of 18
KVTTNLEHQADRDNSIA | EADMVAA | QDYMRLPLI | 1.28 / 3.25 / nd / 1.57 / 2.80 / 2.05 | 2 of 18 (2.03)
AFTNSIFYGQRDDNSIA | HADVLEK | QQYFRFPLA | 1.29 / 1.49 / 0.92 / nd / 1.71 / 2.31 | 0 of 18
QISLNGWDGEPYEYAVA | EGTIADA | QQYSRLPLS | nd / 1.91 / 2.07 / 2.64 / 1.87 / 2.57 | 1 of 18 (1.97)
FLAYALDQTGLQKNNIA | QVNLLEN | QQYERLPLA | 2.19 / 1.66 / 2.42 / 1.68 / 1.93 / 1.55 | 0 of 18
MLTMFPNEPTGDSSNIA | DTNQLNT | QQYQRLPFM | 0.72 / 0.21 / 1.03 / 0.74 / 1.41 / 1.12 | 0 of 18
KLWGRCMDEELINNSIA | NGRLAVQ | QQYDRLPLS | 1.63 / 1.42 / 1.52 / 1.60 / 1.43 / 1.80 | 2 of 18 (2.90)
SLIPFEQQIMKDLNNIA | NTQVRAS | QQYMRLPFM | 0.30 / 0.16 / 0.44 / 0.30 / 0.17 / 0.36 | 0 of 18
HIFPQEYVYGKNNNNVA | DGSTQAW | QQYHRLPLS | -0.29 / 0.72 / 0.00 / -0.55 / -0.11 / -0.50 | 0 of 18
KLLDYEYGTWAMNSAIA | NAALESD | QQYDRLPLT | nd / nd / nd / nd / nd / 2.03 | 1 of 18 (2.27)

The 2 strongest on average among those seen in every replicate, once more:

CDR-L1 | CDR-L2 | CDR-L3 | log10 Kd (nM) by replicate | signal with controls
HIFPQEYVYGKNNNNVA | DGSTQAW | QQYHRLPLS | -0.29 / 0.72 / 0.00 / -0.55 / -0.11 / -0.50 | 0 of 18
KVVKAKSEGDRHAANVA | NANKASD | QQYYRLPLA | 0.14 / 0.08 / -0.02 / 0.08 / 0.01 / 0.15 | 0 of 18

As a blank, each scFv also met three strains without target: over all light chain designs, 4% of these pairings were detected, typically at 2.64 and seldom below 1.59. The control count says in how many pairings with the empty strains this scFv gave a signal, with their mean in brackets.
In the paper, a design with two or fewer of six values counts as a poor binder.
The parent sequence was in this pool as ten entries: three were never detected, three once, and four in most replicates, with averages from 0.34 to 2.37.
Values of this round are not directly comparable with the first-round values of the same sequences.

The measurements come from Li et al. 2023 (doi:10.1038/s41467-023-39022-2) through the FLAb antibody collection.